The subject of data set [1] is type 1 Herpes simplex virus. Description: Inhibitory effect of nucleoside analogues on multiplication of type 1 Herpes simplex in HeLa cell culture (virus titer, TCID50). It counts as cell-based, Herpes simplex virus type 1. The settings on record: HeLa cell cultures, Herpes simplex type 1 virus, compared to controls exerting 50 percent inhibition. The text has this: A method was developed for the testing of the antiviral activity of various drugs in solution which is suitable for the exact, sensitive and objective in vitro assay of drug activity exerted on the cells and tissues of both warm-blooded animals and men [Toxicology 16, 59 (1980)]. The method is also suitable for calculating from the test data the highest concentration of the test drug in the tissue culture medium which is not impairing the tissue yet (CTo).
The difference in the logarithm of virus titers may be considered the objective indicator of the rate of inhibition of virus multiplication.

Data set [2] has as its system mice. Particulars: mouse, in vivo.

Structures are written as SMILES.

`O=c1[nH]c(=O)n([C@@H]2O[C@H](CO)[C@@H](O)[C@H]2O)cc1/C=C/Br` [A, (E)-5-(2-Bromovinyl)-uridine] returned a therapeutic index in data set [1] of 63. Besides, the “tissue toxicity, toxicity trial on mice, in words” value in data set [2] is given as “favourable tissue toxicity”.

These data come from patent US4544740A, “Process for the preparation of 5-(2-bromovinyl)-uridine” (priority 1981, dated 1985).
